Reference: patent publication US6552010B1, “Treatment of SLE with dehydroepiandrosterone” (Genelabs Technologies, Inc., priority 1999, dated 2003)

Details: in vivo

Row | Compound | Therapeutic activity
1 | C[C@]12CC[C@H](O)CC1=CC[C@@H]1[C@@H]2CC[C@]2(C)C(=O)CC[C@@H]12 [DHEA form I, dehydroepiandrosterone] | good therapeutic activity
2 | C[C@]12CC[C@H](O)CC1=CC[C@@H]1[C@@H]2CC[C@]2(C)C(=O)CC[C@@H]12 [DHEA form II, dehydroepiandrosterone] | good therapeutic activity
